Laboratory results reported in US20100240768A1, “NOVEL NUTRACEUTICALCOMPOSITIONS CONTAINING THYMOL AND/OR P-CYMENE OR PLANT EXTRACTS FOR COGNITION” (priority 2007, published 2010).

The chains behind the UniProt entries cited, without tags or fusion partners. Residues count along the entry.
UniProt P48067, 1-652 isoform 3: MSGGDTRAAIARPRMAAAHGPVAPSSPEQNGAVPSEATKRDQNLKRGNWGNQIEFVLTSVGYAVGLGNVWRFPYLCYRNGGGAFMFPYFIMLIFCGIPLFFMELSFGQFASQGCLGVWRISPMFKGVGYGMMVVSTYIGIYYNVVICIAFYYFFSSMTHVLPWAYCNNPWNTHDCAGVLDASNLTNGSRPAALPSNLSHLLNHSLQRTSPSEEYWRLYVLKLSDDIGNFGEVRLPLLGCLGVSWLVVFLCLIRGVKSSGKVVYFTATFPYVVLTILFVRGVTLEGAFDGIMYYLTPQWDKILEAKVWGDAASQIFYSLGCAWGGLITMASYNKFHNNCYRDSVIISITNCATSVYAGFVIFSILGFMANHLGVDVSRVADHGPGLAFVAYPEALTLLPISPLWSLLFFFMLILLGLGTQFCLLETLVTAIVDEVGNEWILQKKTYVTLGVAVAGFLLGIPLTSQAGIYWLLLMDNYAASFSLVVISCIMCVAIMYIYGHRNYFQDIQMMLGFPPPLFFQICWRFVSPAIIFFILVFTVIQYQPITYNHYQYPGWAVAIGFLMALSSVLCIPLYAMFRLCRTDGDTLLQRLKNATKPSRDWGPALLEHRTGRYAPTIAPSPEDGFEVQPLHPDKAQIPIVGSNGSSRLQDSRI

Biological target: human glycine transporter 1b (GlyT1) (Homo sapiens, UniProt P48067)
Assay: Inhibition of glycine transporter 1 in a cellular assay ([3H]glycine uptake into CHO cells)
Assay type: cell-based
Conditions: read-out: IC50 (FIG. 1, GlyT1 inhibition assay); dose-response curve, internalization of radioactive glycine into the cells

CN(CC[C@@H](Oc1ccc(C(F)(F)F)cc1)c1ccccc1)CC(=O)O
IC50: 20 nM
